Patent US20140335050A1, “METHODS, COMPOSITIONS, AND KITS FOR THE TREATMENT OF CANCER” (The General Hospital Corporation, priority 2011, published 2014)

Tests used:
tumor cell lines = assay: MHC Class I and Class II surface staining, statements over a panel of tumor cell lines; format: cell-based, human
Description: Based on the results with 17-AAG, we also tested additional inhibitors of HSP90. […] An increase in the fluorescence staining indicates an increase in MHC Class I. The geometric mean fluorescence intensities of these flow histograms were used to generate Table 11. […] The level of MHC Class I expression increases between two to five fold with IFN-β treatment alone as expected. As shown previously the level of MHC Class I expression also increases between 2.5 to 4.5 fold with HSP90 inhibition.
This effect is observed with the use of three separate inhibitors of HSP90, 17-AEP a water soluble relative of 17-AAG which are relatives of the natural product geldanamycin, PU-H71, a purine derivative found to block HSP90 by competing with ATP binding, and CCT018159, an HSP90 inhibitor identified by drug screening. The combination treatments were carried using two methods. Both involve the pre-treatment of the melanoma tumor cells with IFN-β for four days, after which in one set of conditions the IFN-β is removed and the other set of conditions it is added again. Under both sets of conditions, a synergy between IFN-β and HSP90 inhibition is observed, incubated together higher levels of MHC Class I are observed than with either alone. Some of the increases seen were in excess of an order of magnitude (10-fold) more MHC Class I expression. The four day pretreatment without further IFN-β in combination with the HSP90 inhibitors was always lower than the four day pretreatment with addition of more IFN-β in combination with HSP90 inhibition. […] The MU89 cell line was also more responsive to the combination of IFN-β and HSP90 inhibitors than the other melanoma cell lines MUX and A375.
In addition, HLA Class II expression can also be induced or enhanced by Hsp90 inhibition on otherwise negative tumors cells. […]
For surface staining of HLA Class I and II antigens, cells were harvested using CellStripper™ from Mediatech (Manassas, Va.). […] Stained cells were washed twice with cold PBS and then stained with a goat anti-mouse FITC secondary antibody to allow for quantitative analysis by flow cytometry. […]

MU89 tumor cells = assay: Co-culture of treated tumor cells with HLA-A2 specific TCR Jurkat T cells, IL-2 ELISA; format: cell-based, human; details: two separate experiments (FIG. 20)
Description: FIG. 9 is a series of graphs showing MCH class I expression. Treatment of MU89 tumor cells with IFN-β and HSP90 inhibitors increases IL-2 secretion by HLA-A2 reactive Jurkat T cells. Two seperate experiments are shown. For each experiment, cells were stained for MHC Class I levels, and the geometric mean of flow histograms is graphed in the top two graphs. The same cells were used in a co-culture experiment to assay HLA-A2 levels using a HLA-A2 reactive Jurkat T cell. The results of an IL-2 ELISA are plotted in the graphs on the bottom of the figure. The average and standard deviation of three replicates is shown.
We utilized an in vitro cell line system we have developed to study recognition of tumor cells by T cells after MHC Class I up-regulation. We have engineered a Jurkat T cell line whose sole expressed TCR recognizes HLA-A2 regardless of the presented peptide, such that any cell line expressing surface HLA-A2 will be recognized by means of the binding specificity of this TCR. […]
In order to evaluate T cell recognition of tumor cells, a TCR-transduced Jurkat cell line was used as previously described. […] Tumor cells were treated with either iHsp90 or interferons in combination, as described in the text, and the treated tumor cells were collected and counted after 3 to 6 days of treatment. […] The level of IL-2 is calculated by comparison to a standard curve of known quantities of IL-2.

[1] = HeLa, MCF-7, U2-OS, MU-89, U118, Jurkat, Raji (Table 19)

B1: IFN-β: IFN-β-1a (Avonex) obtained from Biogen-Idec; SEQ ID NO: 1 (protein, listed as Homo sapiens)
chain: MSYNLLGFLQRSSNFQCQKLLWQLNGRLEYCLKDRMNFDIPEEIKQLQQFQKEDAALTIYEMLQNIFAIFRQDSSSTGWNETIVENLLANVYHQINHLKTVLEEKLEKEDFTRGKLMSSLHLKRYYGRILHYLKAKEYSHCAWTIVRVEILRNFYFINRLTGYLRN
modifications: (1)..(166) IFN-beta-1a
B1 was tested, and the “Class I MHC expression over the tumor panel” value (tumor cell lines; [1]) was “induce significant increases”, the “Class II MHC expression over the tumor panel” value (tumor cell lines; [1]) was “failed to induce” and the “Increase of the level of MHC Class I expression” value (tumor cell lines; several melanoma cell lines, single agent) was “two to five”. For the same molecule, the “Increase of IL-2 levels on co-culture with Jurkat HLA-A2 specific TCR cell line” value (MU89 tumor cells; listed as IFN beta) was 4 fold and the “Increase of IL-2 levels on co-culture with Jurkat HLA-A2 specific TCR cell line” value (MU89 tumor cells; listed as IFN-beta) was “enhanced”.
